The list shows a part of the results, in another mix than the full data. Inconclusive results are not listed. Some structures show a salt or complex split into parts, the way the source records it. Calls of active or inactive are those of the source. Calls come from the whole dose curve; as a rule, active = well fitted curve in the direction sought with a large enough effect; inconclusive = small, poorly fitted or top-dose-only effect, or another doubt; inactive = no such curve, though single readings can be large; an effect the other way counts as inactive or inconclusive.
How the values were obtained:
[1] = Quantitative High-Throughput drug screen in 47 multiple myeloma cell lines against the NCATS MIPE library collection: ARP1_JJKsccF8 cell viability assay (AID 1918928; note: nearly all actives have a fitted effect of over 40% in size); settings: ARP1 myeloma cells viability, CellTiter-Glo ATP, 48 h; at 23.2 µM (top of the series)
Summary of the method: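 ATP readout (CellTiter-Glo), 48 h drug incubation, 37 °C/5% CO2, 500 cells per well; normalisation to DMSO (100%) and media-only (0%) controls.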

[2] = Quantitative High-Throughput drug screen in 47 multiple myeloma cell lines against the NCATS MIPE library collection: ARD_JJKsccE7 cell viability assay (AID 1918929); settings: ARD myeloma cell line viability, CellTiter-Glo, 48 h; at 23.2 µM (top of the series)
Summary of the method: (§1)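 Approved and investigational drugs from MIPE 4.0 were added by pin tool to 500 cells per well. After 48 hours at 37C, ATP-based CellTiter-Glo luminescence indicated remaining viability.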

[3] = Quantitative High-Throughput drug screen in 47 multiple myeloma cell lines against the NCATS MIPE library collection: JIM3_ECACC cell viability assay (AID 1918963; note: potency is the fitted concentration of half-maximal effect; nearly all actives have a fitted effect of over 35% in size); settings: JIM3 myeloma viability, CellTiter-Glo ATP, 48 h
Summary of the method: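 Luminescent ATP measurement with CellTiter-Glo gives viability, scaled between DMSO-only wells (100%) and media-only wells (0%). Cells, 500 per well, faced library compounds for 48 hours at 37C.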

[4] = Quantitative High-Throughput drug screen in 47 multiple myeloma cell lines against the NCATS MIPE library collection: H1112_PLB cell viability assay (AID 1918967; note: nearly all actives have a fitted effect of over 30% in size); settings: H1112 myeloma cells viability, ATP luminescence, 48 h; at 23.2 µM (top of the series)
Summary of the method: as §1

[5] = Quantitative High-Throughput drug screen in 47 multiple myeloma cell lines against the NCATS MIPE library collection: Karpas25_ECACC cell viability assay (AID 1918968; note: nearly all actives have a fitted effect of over 35% in size); settings: Karpas25 myeloma viability, CellTiter-Glo ATP, 48 h; at 23.2 µM (top of the series)
Summary of the method: as §1

[6] = Quantitative High-Throughput drug screen in 47 multiple myeloma cell lines against the NCATS MIPE library collection: KMS12BM_JCRB cell viability assay (AID 1918971); settings: KMS12BM myeloma viability, CellTiter-Glo ATP, 48 h; at 23.2 µM (top of the series); note: nearly all actives have a fitted effect of over 35% in size
Summary of the method: (§2)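 Viability readout: CellTiter-Glo luminescence following 5 min room-temperature incubation with reagent. Prior exposure: 48 h, 37C, humidified 5% CO2, 500 cells per well.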

[7] = Quantitative High-Throughput drug screen in 47 multiple myeloma cell lines against the NCATS MIPE library collection: KMS12PE_JCRB cell viability assay (AID 1918972); settings: KMS12PE myeloma viability, CellTiter-Glo ATP, 48 h; at 23.2 µM (top of the series); note: nearly all actives have a fitted effect of over 30% in size
Summary of the method: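 Steps: seed 500 cells per well; pin-transfer MIPE 4.0 library; incubate 48 h at 37C, 5% CO2, humidified; add CellTiter-Glo, 5 min room temperature; read luminescence.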

[8] = Quantitative High-Throughput drug screen in 47 multiple myeloma cell lines against the NCATS MIPE library collection: KMS21BM_JCRB cell viability assay (AID 1918974); settings: ATP luminescence, 48 h; at 23.2 µM (top of the series)
Summary of the method: as §1

[9] = Quantitative High-Throughput drug screen in 47 multiple myeloma cell lines against the NCATS MIPE library collection: KMS26_JCRB cell viability assay (AID 1918975); settings: KMS26 myeloma cells viability, CellTiter-Glo ATP, 48 h; note: potency is the fitted concentration of half-maximal effect; nearly all actives have a fitted effect of over 45% in size
Summary of the method: as §2

[10] = Quantitative High-Throughput drug screen in 47 multiple myeloma cell lines against the NCATS MIPE library collection: MMM1_PLB cell viability assay (AID 1918976); settings: MM.1S-type MMM1 myeloma cells viability, CellTiter-Glo, 48 h; note: potency is the fitted concentration of half-maximal effect; nearly all actives have a fitted effect of over 35% in size
Summary of the method: (§3)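 Inhibition of viability over 48 h was scored by ATP content (CellTiter-Glo) in 500-cell wells. Zero and full viability were defined by media-only and DMSO-only wells.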

[11] = Quantitative High-Throughput drug screen in 47 multiple myeloma cell lines against the NCATS MIPE library collection: NCIH929_DSMZ cell viability assay (AID 1918978); settings: NCI-H929 myeloma viability, CellTiter-Glo ATP, 48 h
Summary of the method: as §3

[12] = Quantitative High-Throughput drug screen in 47 multiple myeloma cell lines against the NCATS MIPE library collection: OCIMY1_PLB cell viability assay (AID 1918979); settings: OCI-MY1 myeloma viability, CellTiter-Glo ATP, 48 h; at 23.2 µM (top of the series); note: nearly all actives have a fitted effect of over 35% in size
Summary of the method: as §3

[13] = Quantitative High-Throughput drug screen in 47 multiple myeloma cell lines against the NCATS MIPE library collection: KMS28PE_JCRB cell viability assay (AID 1918983); settings: KMS28PE multiple myeloma viability, CellTiter-Glo ATP, 48 h
Summary of the method: as §3

[14] = Quantitative High-Throughput drug screen in 47 multiple myeloma cell lines against the NCATS MIPE library collection: L363_DSMZ cell viability assay (AID 1918984); settings: L363 myeloma viability, CellTiter-Glo ATP luminescence, 48 h; at 23.2 µM (top of the series); note: nearly all actives have a fitted effect of over 40% in size
Summary of the method: as §3

[15] = Quantitative High-Throughput drug screen in 47 multiple myeloma cell lines against the NCATS MIPE library collection: OPM1_PLB cell viability assay (AID 1918989); settings: CellTiter-Glo, 48 h; at 23.2 µM (top of the series); note: nearly all actives have a fitted effect of over 40% in size
Summary of the method: as §3

[16] = Quantitative High-Throughput drug screen in 47 multiple myeloma cell lines against the NCATS MIPE library collection: SKMM1_PLB cell viability assay (AID 1919863); settings: SKMM1 myeloma viability, CellTiter-Glo ATP, 48 h; active compounds read low; note: nearly all actives have a fitted effect of over 35% in size
Summary of the method: as §3

[17] = Quantitative High-Throughput drug screen in 47 multiple myeloma cell lines against the NCATS MIPE library collection: U266_ATCC cell viability assay (AID 1919864); settings: U266 myeloma viability, CellTiter-Glo ATP luminescence, 48 h; at 23.2 µM (top of the series); note: nearly all actives have a fitted effect of over 35% in size
Summary of the method: as §3

[18] = Primary fluorescence-based thiol-reactive (MSTI) qHTS assay for identification of artifact compounds. (AID 1845221); note: nearly all actives have a fitted effect of over 65% in size; note: potency is the fitted concentration of half-maximal effect
Summary of the method: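 One-hour, room-temperature, dark incubation of compound with 4 uM MSTI in PBS (pH 7.4, 2% DMSO) precedes a fluorescence read at 525 nm excitation, 598 nm emission; Hill-equation fitting yields concentration-response values.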

[19] = system: Nanoluciferase (engineered Oplophorus gracilirostris luciferase); test: Primary Nanoluciferase (NLuc) qHTS assay for identification of artifact compounds. (AID 1845222); settings: NLuc-conditioned medium, Nano-Glo luminescence, 5 min; at 54.1 µM (top of the series);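 note: 0% = DMSO and -100% = no enzyme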
Summary of the method: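 Luminescence from secreted NLuc (filtered, 1:55-diluted S16 cell medium) read 5 min after Nano-Glo substrate; compounds preincubated 15 min, RT. Hill fits of inhibition normalized to DMSO and no-enzyme.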

[20] = Primary redox qHTS assay for identification of artifact compounds. (AID 1845223); settings: Amplex Red/HRP redox cycling with DTT, fluorescence; at 53.8 µM (top of the series)
Summary of the method: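 Amplex Red (25 uM) and HRP (250 mU/mL) in HBSS, with compounds for 15 min, then 250 uM DTT for 30 min, room temperature, dark. Fluorescence 525/598 nm read; normalized to DMSO and 10 uM DA3003; Hill fit.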

CC1=C2[N-][C@@](C)([C@@H]3N=C(C(C)=C4N=C(C=C5N=C1[C@@](C)(CC(N)=O)[C@H]5CCC(N)=O)C(C)(C)[C@H]4CCC(N)=O)[C@](C)(CCC(=O)NC[C@@H](C)OP(=O)([O-])O[C@H]1[C@@H](O)[C@@H](n4cnc5cc(C)c(C)cc54)O[C@H]1CO)[C@H]3CC(N)=O)[C@@](C)(CC(N)=O)[C@@H]2CCC(N)=O.[C-]#N.[Co+3]
inactive: viability [1] 83.1% | viability [2] 95.9% | viability [4] 95.7% | viability (% of control) [5] 99.4% | viability, % of DMSO [6] 120% | viability [7] 97.3% | viability [8] 165% | viability [12] 87.5% | viability (% of control) [14] 124% | viability (% of control) [15] 105% | viability [16] 98.9% | viability (% of DMSO control) [17] 106%
active: Potency [3] 0.0645 µM | Potency [9] 0.204 µM | Potency [10] 0.724 µM | Potency [11] 7.24 µM | Potency [13] 6.45 µM

C/C1=C2N=C(/C=C3N=C(/C(C)=C4\N=C(C(CC(N)=O)C4(C)CCC(=O)NCC(C)OP(=O)([O-])OC4C(CO)OC(n5cnc6cc(C)c(C)cc65)C4O)C4(C)N=C1C(CCC(N)=O)C4(C)CC(N)=O)C(CCC(N)=O)C\3(C)C)C(CCC(N)=O)C/2(C)CC(N)=O.[C-]#N.[Co] (stereo unspecified)
active: Potency [18] 2.92 µM

CCOP(=O)(CC)Oc1ccc([N+](=O)[O-])cc1 (stereo unspecified)
inactive: Potency [18] | activity, negative = inhibition [19] -1.35% | redox activity (% of DA3003) [20] -3.1%

From PubChem BioAssay (NCATS)
